{
  "sequences": {"note": "Protein sequences, listed by entry. Tags and fused reporters are not part of them. Residues count along the entry.", "UniProt P01920, 33-261": "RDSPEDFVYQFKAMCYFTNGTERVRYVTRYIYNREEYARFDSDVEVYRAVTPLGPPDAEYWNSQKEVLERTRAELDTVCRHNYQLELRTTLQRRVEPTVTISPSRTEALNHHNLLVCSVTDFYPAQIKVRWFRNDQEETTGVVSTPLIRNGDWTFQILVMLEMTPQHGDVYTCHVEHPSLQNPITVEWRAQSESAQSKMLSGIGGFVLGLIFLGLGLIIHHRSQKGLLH"},
  "source": "patent US20070184519A1",
  "about": "“Peptides, polypeptides, and proteins of reduced immunogenicity and methods for their production” (priority 2003, published 2007)",
  "key": {"DRB1*0802": {"molecular_target": "T1, DRB1*0802 (Homo sapiens, UniProt P01903+P01911, A100R/A103L/A169T/F76Y/H45Y/I96F/K41T/L162R/M171V/P40S/Q125H/Q178H/Q39Y/Q99D/R218S/R42G/S66Y/V115G/W38E)", "T1 construct": "Epstein-Barr virus (EBV) transformed homozygous cell lines were used as sources of human HLA Class II molecules; endogenous in cells; host or cells: OLL (EBV-transformed homozygous B cell line)", "experiment": "Class II peptide-binding assay DRB1*0802 (DR8w2)", "conditions": "inhibition of radiolabeled probe binding; — read as no appreciable binding"}, "DRB1*0401": {"molecular_target": "T2, DRB1*0401 (Homo sapiens, UniProt P01903+P01911, A100K/A169T/F76Y/I96L/K127E/L162R/M171V/N62H/P40V/Q125Y/R42H/S133A/S149N/S66Y/V115G/V209L/W38E)", "T2 construct": "Epstein-Barr virus (EBV) transformed homozygous cell lines were used as sources of human HLA Class II molecules; endogenous in cells; host or cells: PREISS (EBV-transformed homozygous B cell line)", "experiment": "Class II peptide-binding assay DRB1*0401 (DR4w4)"}, "DRB1*1501": {"molecular_target": "T3, DRB1*1501 (Homo sapiens, UniProt P01903+P01911)", "T3 construct": "expressed in transfected cells; host or cells: transfected fibroblasts L466.1", "experiment": "Class II peptide-binding assay DRB1*1501 (DR2w2b)"}, "DRB1*0405": {"molecular_target": "T4, DRB1*0405 (Homo sapiens, UniProt P01903+P01911, A100R/A169T/D86S/F76Y/I96L/K127E/L162R/M171V/N62H/P40V/Q125Y/R42H/S133A/S149N/S66Y/V115G/V209L/W38E)", "T4 construct": "Epstein-Barr virus (EBV) transformed homozygous cell lines were used as sources of human HLA Class II molecules; endogenous in cells; host or cells: KT3 (EBV-transformed homozygous B cell line)", "experiment": "Class II peptide-binding assay DRB1*0405 (DR4w15)"}, "DRB1*1101": {"molecular_target": "T5, DRB1*1101 (Homo sapiens, UniProt P01903+P01911, A100R/A169T/A87E/I96F/K41T/L162R/M171V/P40S/Q125H/Q178H/Q39Y/Q99D/R42S/S66Y/T262R/V115G/W38E)", "T5 construct": "Epstein-Barr virus (EBV) transformed homozygous cell lines were used as sources of human HLA Class II molecules; endogenous in cells; host or cells: SWEIG (EBV-transformed homozygous B cell line)", "type": "binding"}, "DRB1*1302": {"molecular_target": "T6, DRB1*1302 (Homo sapiens, UniProt P01903+P01911, A100E/A169T/K41T/L162R/M171V/P40S/Q125H/Q178H/Q39Y/Q99D/R42S/S66N/T262R/V115G/W38E/Y61H)", "T6 construct": "Epstein-Barr virus (EBV) transformed homozygous cell lines were used as sources of human HLA Class II molecules; endogenous in cells; host or cells: HO301 / H0301 (EBV-transformed homozygous B cell line)", "experiment": "Class II peptide-binding assay DRB1*1302 (DR6w19)"}, "DRB1*0701": {"molecular_target": "T7, DRB1*0701 (Homo sapiens, UniProt P01903+P01911, A100R/A102G/A103Q/D57E/D86V/E43K/F76Y/K127E/L162R/M171V/P40G/Q125H/Q99D/R33Q/R42Y/R54Q/S133A/S66F/T210M/V115G/Y107V/Y59L/Y89S)", "T7 construct": "Epstein-Barr virus (EBV) transformed homozygous cell lines were used as sources of human HLA Class II molecules; endogenous in cells; host or cells: PITOUT (EBV-transformed homozygous B cell line)", "experiment": "Class II peptide-binding assay DRB1*0701 (DR7)", "conditions": "IFNb 15-mer peptides, Table 5D"}, "DRB1*0901": {"molecular_target": "DRB1*0901 (Homo sapiens, UniProt P01903+P01911, A100R/A103E/D57H/D86V/F55Y/F60I/F76Y/I96F/K127E/L162R/M171V/P40D/Q125H/Q99R/R33Q/R42F/S133A/S66N/T210M/V115G/W38K/Y107V/Y59G/Y89S)", "experiment": "Class II peptide-binding assay DRB1*0901 (DR9)"}, "DRB1*0101": {"molecular_target": "T8, DRB1*0101 (Homo sapiens, UniProt P01903+P01911, A100R/D57E/F55L/F60I/F76Y/I96L/L162R/M171V/P40L/Q125E/R42F/V115G/Y59C)", "T8 construct": "Epstein-Barr virus (EBV) transformed homozygous cell lines were used as sources of human HLA Class II molecules; endogenous in cells; host or cells: LG2 (EBV-transformed homozygous B cell line)", "experiment": "Class II peptide-binding assay DRB1*0101 (DR1)", "conditions": "inhibition of radiolabeled probe binding; — read as no appreciable binding"}, "DRB1*0404": {"molecular_target": "T9, DRB1*0404 (Homo sapiens, UniProt P01903+P01911, A100R/A169T/F76Y/I96L/K127E/L162R/M171V/N62H/P40V/Q125Y/R42H/S133A/S149N/S66Y/V209L/W38E)", "T9 construct": "Epstein-Barr virus (EBV) transformed homozygous cell lines were used as sources of human HLA Class II molecules; endogenous in cells; host or cells: BIN40 (EBV-transformed homozygous B cell line)", "experiment": "Class II peptide-binding assay DRB1*0404 (DR4w14)", "conditions": "inhibition of radiolabeled probe binding; — read as no appreciable binding"}, "DQB1*0301": {"molecular_target": "DQB1*0301 (Homo sapiens, UniProt P01909+P01920)", "experiment": "Class II peptide-binding assay DQB1*0301", "conditions": "inhibition of radiolabeled probe binding; — read as no appreciable binding"}, "[1]": {"conditions": "inhibition of radiolabeled probe binding, — read as no appreciable binding"}},
  "note": "pIC50: −log10 of the molar value. Read-outs that look alike come from different tables or passages of the source.",
  "data": [
    {"smiles": "CC[C@H](C)[C@H](NC(=O)[C@H](C)NC(=O)[C@H](CCC(=O)O)NC(=O)[C@H](CCCCN)NC(=O)[C@H](CCC(N)=O)NC(=O)[C@H](C)NC(=O)CNC(=O)[C@H](CC(C)C)NC(=O)[C@H](C)N)C(=O)N[C@@H](CO)C(=O)N1CCC[C@H]1C(=O)N1CCC[C@H]1C(=O)N[C@@H](CC(=O)O)C(=O)N[C@@H](C)C(=O)N[C@@H](C)C(=O)O", "values": [
      {"measurement": "pIC50", "setting": "DRB1*0802", "result": 5.33}
    ]},
    {"smiles": "CC[C@H](C)[C@H](NC(=O)[C@H](CCC(=O)O)NC(=O)[C@H](CCC(=O)O)NC(=O)[C@@H]1CCCN1C(=O)[C@@H](NC(=O)[C@H](CC(=O)O)NC(=O)[C@H](Cc1ccccc1)NC(=O)[C@H](CC(N)=O)NC(=O)[C@H](CCCNC(=N)N)NC(=O)[C@H](CCCNC(=N)N)NC(=O)[C@H](CC(=O)O)NC(=O)[C@H](CCCCN)NC(=O)[C@H](CC(C)C)NC(=O)[C@@H](N)CS)[C@@H](C)CC)C(=O)N[C@@H](CCCCN)C(=O)O", "values": [
      {"measurement": "pIC50", "setting": "DRB1*0401; IFNb 15-mer peptides, Table 5D", "result": 4.58},
      {"measurement": "IC50", "setting": "DRB1*1501; IFNb 15-mer peptides, Table 5D", "result": 17100, "unit": "nM"},
      {"measurement": "pIC50", "setting": "DRB1*0405; IFNb 15-mer peptides, Table 5D", "result": 4.75},
      {"measurement": "pIC50", "setting": "DRB1*1101; IFNb 15-mer peptides, Table 5D", "result": 5.17},
      {"measurement": "pIC50", "setting": "DRB1*1302; IFNb 15-mer peptides, Table 5D", "result": 4.77},
      {"measurement": "pIC50", "setting": "DRB1*0701", "result": 4.56}
    ]},
    {"smiles": "CC[C@H](C)[C@H](NC(=O)[C@H](CCC(=O)O)NC(=O)[C@@H](NC(=O)[C@H](CCCNC(=N)N)NC(=O)[C@@H](NC(=O)[C@@H](NC(=O)[C@@H](NC(=O)[C@H](Cc1c[nH]c2ccccc12)NC(=O)[C@H](C)NC(=O)[C@H](CS)NC(=O)[C@H](Cc1c[nH]cn1)NC(=O)[C@H](CO)NC(=O)[C@H](CC(=O)O)NC(=O)[C@H](CCC(=O)O)NC(=O)[C@@H](N)CCCCN)[C@@H](C)O)[C@@H](C)CC)C(C)C)C(C)C)C(=O)O", "values": [
      {"measurement": "pIC50", "setting": "DRB1*0901; IFNb 15-mer peptides, Table 5D", "result": 5.71}
    ]},
    {"smiles": "CC[C@H](C)[C@H](NC(=O)[C@H](CC(N)=O)NC(=O)[C@H](CCC(=O)O)NC(=O)[C@H](C)NC(=O)[C@H](CCC(=O)O)NC(=O)[C@H](CCCCN)NC(=O)[C@H](C)NC(=O)[C@H](CCC(=O)O)NC(=O)[C@H](CC(C)C)NC(=O)[C@@H](N)CC(C)C)C(=O)N[C@H](C(=O)N[C@H](C(=O)NCC(=O)N[C@@H](CS)C(=O)N[C@@H](C)C(=O)O)[C@@H](C)O)[C@@H](C)O", "values": [
      {"measurement": "pIC50", "setting": "DRB1*0401; [1]", "result": 4.87},
      {"measurement": "IC50", "setting": "DRB1*1501; [1]", "result": 16800, "unit": "nM"},
      {"measurement": "pIC50", "setting": "DRB1*0101", "result": 4.60}
    ]},
    {"smiles": "CC[C@H](C)[C@H](NC(=O)CNC(=O)[C@H](CCC(=O)O)NC(=O)[C@H](CCC(=O)O)NC(=O)[C@H](CC(C)C)NC(=O)[C@H](CC(=O)O)NC(=O)[C@H](CCCCN)NC(=O)[C@H](CC(C)C)NC(=O)[C@@H](N)CC(C)C)C(=O)N[C@@H](CCC(N)=O)C(=O)N[C@H](C(=O)N[C@@H](CC(C)C)C(=O)N[C@@H](CCSC)C(=O)NCC(=O)N[C@@H](CCCNC(=N)N)C(=O)O)[C@@H](C)O", "values": [
      {"measurement": "pIC50", "setting": "DRB1*0401; [1]", "result": 5.14},
      {"measurement": "IC50", "setting": "DRB1*1501; [1]", "result": 18900, "unit": "nM"},
      {"measurement": "pIC50", "setting": "DRB1*0405; [1]", "result": 4.97},
      {"measurement": "pIC50", "setting": "DRB1*1101; [1]", "result": 4.86},
      {"measurement": "pIC50", "setting": "DRB1*1302; [1]", "result": 4.66},
      {"measurement": "pIC50", "setting": "DRB1*0101", "result": 5.14},
      {"measurement": "pIC50", "setting": "DRB1*0901; [1]", "result": 4.63},
      {"measurement": "pIC50", "setting": "DRB1*0404", "result": 5.69}
    ]},
    {"smiles": "CC(C)C[C@H](NC(=O)[C@H](CCC(N)=O)NC(=O)[C@H](CC(C)C)NC(=O)[C@@H]1CCCN1C(=O)[C@H](CCC(=O)O)NC(=O)[C@H](Cc1c[nH]c2ccccc12)NC(=O)[C@@H]1CCCN1C(=O)[C@H](CCC(N)=O)NC(=O)[C@H](CO)NC(=O)[C@H](CO)NC(=O)[C@H](CC(N)=O)NC(=O)[C@@H](NC(=O)[C@@H](N)CC(C)C)C(C)C)C(=O)N[C@@H](Cc1c[nH]cn1)C(=O)N[C@H](C(=O)O)C(C)C", "values": [
      {"measurement": "pIC50", "setting": "DRB1*0405; [1]", "result": 5.11},
      {"measurement": "pIC50", "setting": "DQB1*0301", "result": 5.43}
    ]}
  ]
}
